Publication PMC3483018 (Journal of Medicinal Chemistry, 2012)

Tested on: MV4–11 human FLT3-ITD positive AML cell line
Experiment: Cell viability assay
Type: cell-based

**Q.** `Cc1nn(C)cc1-c1nc2c(N3CCN(Cc4ccc(Cl)cc4)CC3)c(Cl)cnc2[nH]1` [Compound 27e, 6-Chloro-7-(4-(4-chlorobenzyl)piperazin-1-yl)-2-(1,3-dimethyl-1H-pyrazol-4-yl)-3H-imidazo[4,5-b]pyridine] was tested. Which GI50 did it give?
**A.** 291 nM
